Measurements reported in patent US9499517B2, “Substituted prolines / piperidines as orexin receptor antagonists” (Eolas Therapeutics, Inc., priority 2012, dated 2016).
Like-named read-outs stand apart in the source and are kept apart here.

The chains behind the UniProt entries cited, without tags or fusion partners.
UniProt O43614, whole entry: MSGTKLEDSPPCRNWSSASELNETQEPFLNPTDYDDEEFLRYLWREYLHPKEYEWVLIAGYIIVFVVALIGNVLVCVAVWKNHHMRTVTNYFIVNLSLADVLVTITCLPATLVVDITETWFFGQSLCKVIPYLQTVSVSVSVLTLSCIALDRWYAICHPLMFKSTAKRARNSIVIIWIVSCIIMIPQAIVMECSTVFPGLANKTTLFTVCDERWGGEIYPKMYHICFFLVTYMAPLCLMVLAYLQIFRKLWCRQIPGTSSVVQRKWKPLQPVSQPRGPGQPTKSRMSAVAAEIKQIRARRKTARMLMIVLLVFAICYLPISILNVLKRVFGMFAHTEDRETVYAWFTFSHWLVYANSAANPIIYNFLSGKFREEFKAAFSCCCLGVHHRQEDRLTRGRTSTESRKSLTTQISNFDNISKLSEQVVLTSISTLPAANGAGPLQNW
UniProt O43613, whole entry: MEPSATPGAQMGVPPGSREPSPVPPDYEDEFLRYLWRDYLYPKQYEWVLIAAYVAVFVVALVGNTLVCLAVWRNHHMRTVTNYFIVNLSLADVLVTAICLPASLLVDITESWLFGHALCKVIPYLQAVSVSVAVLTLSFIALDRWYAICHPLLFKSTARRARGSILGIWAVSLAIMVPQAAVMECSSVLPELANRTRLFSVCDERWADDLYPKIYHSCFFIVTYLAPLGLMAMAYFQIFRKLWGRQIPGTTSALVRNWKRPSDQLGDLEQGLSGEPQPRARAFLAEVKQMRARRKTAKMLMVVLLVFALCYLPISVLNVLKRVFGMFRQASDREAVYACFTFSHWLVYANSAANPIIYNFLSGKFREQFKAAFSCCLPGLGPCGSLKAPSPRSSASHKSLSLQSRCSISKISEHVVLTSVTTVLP

How the values were obtained:
OX2 = target: T1, OX2 (Homo sapiens, UniProt O43614); test: Orexin receptor cell-based functional assay: [Ca2+]i by FLIPR in CHO-OX2 cells, antagonism of EC90 of OXA
T1 construct: expressed in transfected cells; host or cells: CHO (CHO-OX2, kept under G418 or Blasticidin selection)

OX1 = target: T2, OX1 (Homo sapiens, UniProt O43613); test: Orexin receptor cell-based functional assay: [Ca2+]i by FLIPR in CHO-OX1 cells, antagonism of EC90 of OXA
T2 construct: expressed in transfected cells; host or cells: CHO (CHO-OX1, kept under G418 or Blasticidin selection)

[1] = Table 2, IC50 bioactivity, CHO-OX2 cells, FLIPR, read-out: OX2
[2] = Table 2A, bioactivity with respect to OX2, CHO-OX2 cells, FLIPR, read-out: OX2

Row | IC50 (OX2; [1]) [µM] | IC50 (OX2; [2]) [µM] | SMILES | also measured
1 |  | 4 | Cc1ccc(-c2ncccn2)c(C(=O)N2CCC[C@@H](C)[C@H]2CNc2ncc(F)cc2F)c1 [Example A182, ((2S,3R)-2-(((3,5-Difluoropyridin-2-yl)amino)methyl)-3-methylpiperidin-1-yl)(5-methyl-2-(pyrimidin-2-yl)phenyl)methanone] | 
2 |  | 4 | Cc1ccc(-c2ncccn2)c(C(=O)N2CCC[C@@H](C)[C@H]2CNc2ccc(C(F)(F)F)cn2)n1 [Example A183, ((2S,3R)-3-Methyl-2-(((5-(trifluoromethyl)pyridin-2-yl)amino)methyl)piperidin-1-yl)(6-methyl-3-(pyrimidin-2-yl)pyridin-2-yl)methanone] | 

The remaining lines, values behind:

Row | SMILES | IC50 (OX2; [1]) [µM] | IC50 (OX2; [2]) [µM] | also measured
3 | Cc1nc(C(=O)N2CCCC(C)(C)C2CNc2ncc(C(F)(F)F)cn2)c(-c2ccc(F)cc2)s1 (centres unmarked) [SR-12364, reference compound] |  |  | IC50 (OX2; Table 5, read-out: OX2 IC50): 2.64 µM
4 | CO[C@@H]1CCCN(C(=O)c2nc(C)sc2-c2ccc(F)cc2)[C@@H]1CNc1nc2ccccc2s1 (racemic) [Example 94, rac-((2R,3R)-2-((benzo[d]thiazol-2-ylamino)methyl)-3-methoxypiperidin-1-yl)(5-(4-fluorophenyl)-2-methylthiazol-4-yl)methanone] | 1 |  | 
5 | Cc1ccc(-n2nccn2)c(C(=O)N2CCC[C@@H](C)[C@H]2CNc2nnc(C(F)(F)F)s2)c1 [Example A102, ((2S,3R)-3-Methyl-2-(((5-(trifluoromethyl)-1,3,4-thiadiazol-2-yl)amino)methyl)piperidin-1-yl)(5-methyl-2-(2H-1,2,3-triazol-2-yl)phenyl)methanone] |  | > 5 | 
6 | Cc1nc(-c2ccccc2)c(C(=O)N2CC(N)CCC2CNC(=O)c2cccc3cccnc23)s1 (racemic) [Example 44, rac-N-((5-amino-1-(2-methyl-4-phenylthiazole-5-carbonyl)piperidin-2-yl)methyl)quinoline-8-carboxamide] | 1 |  | 
7 | Cc1ccc(-c2ccccn2)c(C(=O)N2CCC[C@@H](C)[C@H]2CNc2ncc(C(F)(F)F)cn2)c1 [Example A152, ((2S,3R)-3-Methyl-2-(((5-(trifluoromethyl)pyrimidin-2-yl)amino)methyl)piperidin-1-yl)(5-methyl-2-(pyridin-2-yl)phenyl)methanone] |  | 2 | 
8 | Cc1nc(C(=O)N2CCCCC2CNc2ncc(C(F)(F)F)cn2)c(-c2ccc(F)cc2)s1 (centres unmarked) [SR-12376, reference compound] |  |  | selectivity for OX1 (OX1; OX1 over OX2, cell-based functional assay): approximately five; IC50 (OX2; Table 5, read-out: OX2 IC50): 0.07 µM
9 | O=C(NC[C@@H]1C[C@@H](O)CN1C(=O)c1ccccc1-c1ccccc1)c1cccc2cccnc12 [Example 4, N-(((2S,4R)-1-(Biphenylcarbonyl)-4-hydroxypyrrolidin-2-yl)methyl)quinoline-8-carboxamide] | 1 |  | 
10 | Cc1nc(C(=O)N2CCCC(C)(C)C2CNc2ncc(C(F)(F)F)cn2)c(-c2ccc(F)cc2)s1 (centres unmarked) [SR-12365, reference compound] |  |  | selectivity ratio (OX1/OX2 selectivity) (OX1; OX1 over OX2, from the IC50 values of Table 5): approximately 20
11 | C[C@@H]1CCCN(C(=O)c2ccccc2OC(F)(F)F)[C@@H]1CNc1ncc(Cl)cn1 (racemic) [Example 122, rac-((2S,3R)-2-(((5-chloropyrimidin-2-yl)amino)methyl)-3-methylpiperidin-1-yl)(2-(trifluoromethoxy)phenyl)methanone] | 5 |  | 
12 | C[C@@H]1CCCN(C(=O)c2cc(Cl)ccc2-c2ncccn2)[C@@H]1CNc1ncc(C(F)(F)F)cn1 [Example A201, (5-Chloro-2-(pyrimidin-2-yl)phenyl)((2S,3R)-3-methyl-2-(((5-(trifluoromethyl)pyrimidin-2-yl)amino)methyl)piperidin-1-yl)methanone] |  |  | selectivity for OX1 over OX2 (OX1; relative to Examples 112 and 114 (Table 4)): improved selectivity for OX1 over OX2
13 | Cc1ccc(-c2ccccn2)c(C(=O)N2CCC[C@@H](C)[C@H]2CNc2ccc(C(F)(F)F)nn2)c1 [Example A150, ((2S,3R)-3-Methyl-2-(((6-(trifluoromethyl)pyridazin-3-yl)amino)methyl)piperidin-1-yl)(5-methyl-2-(pyridin-2-yl)phenyl)methanone] |  | 4 | 
